Binding of CDR-mutated scFvs to a peptide of the spike HR2 region

The measurements come from Engelhart et al. 2022 (doi:10.1038/s41597-022-01779-4) through the FLAb antibody collection.

All variants were tested on one target, the spike HR2 peptide PDVDLGDISGINAS (SARS-CoV-2).

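The parent was found by panning a naive human phage display library on the peptide. In library AAYL49, one, two or three CDR residues were substituted; doubles and triples were drawn at random. The assay is AlphaSeq: two haploid yeast populations carry antibody and antigen on their surface. Mating (16 h, 30 °C) was followed by selection of diploids and sequencing of their barcodes. Each replicate has its own calibration line, from reference interactions of the BCL2 family. Each pool was mated in three replicate cultures.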

Parent scFv Ab-14: VH joined to VL by the linker GGGGSGGGGSGGGGS. Changes lie in the heavy chain CDRs alone.
VH: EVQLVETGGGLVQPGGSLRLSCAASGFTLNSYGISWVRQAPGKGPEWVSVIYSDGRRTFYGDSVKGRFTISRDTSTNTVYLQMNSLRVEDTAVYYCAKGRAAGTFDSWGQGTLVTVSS
VL: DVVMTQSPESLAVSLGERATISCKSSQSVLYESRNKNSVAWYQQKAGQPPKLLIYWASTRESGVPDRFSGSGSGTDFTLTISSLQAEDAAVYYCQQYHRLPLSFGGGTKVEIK

Each variant's VH is given in full. Numbers give log10(Kd / nM), so 0 is 1 nM and 3 is 1 µM. Smaller is tighter. An entry "n.d." has no value in the source: the pair was not observed among the diploids in that replicate. This suggests poor binding but is not conclusive. As a blank, each scFv also met three strains without target: over library AAYL49, 15% of these pairings were detected, typically at 4.06 and seldom below 2.83. For each scFv, signals with the empty controls are counted beside the result, with their mean in brackets.

| VH | log10 Kd (nM) by replicate | signal with controls |
|---|---|---|
| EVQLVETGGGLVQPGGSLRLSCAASGFTLNSYGISWVRQAPGKGPEWVSVIYSDGRSTFYGDGVKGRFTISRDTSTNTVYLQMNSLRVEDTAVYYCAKGRAAGWFDSWGQGTLVTVSS | n.d. / n.d. / n.d. | 3/9 (4.39) |
| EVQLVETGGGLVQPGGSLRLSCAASGFWLNSYGISWVRQAPGKGPEWVSVIYSDGRQTFYGDWVKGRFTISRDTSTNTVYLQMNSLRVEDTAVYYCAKGRAAGTFDSWGQGTLVTVSS | n.d. / n.d. / n.d. | 0/9 |
| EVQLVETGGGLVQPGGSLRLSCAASGFTLNSYGISWVRQAPGKGPEWVSVIYSMGQRTFYGDSVKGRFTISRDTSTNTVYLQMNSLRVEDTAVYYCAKGRAIGTFDSWGQGTLVTVSS | 5.96 / 3.18 / 4.54 | 1/9 (3.98) |
| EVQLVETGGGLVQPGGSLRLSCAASGFTQNSYGISWVRQAPGKGPEWVSVIYFDGRRTFYGDSVKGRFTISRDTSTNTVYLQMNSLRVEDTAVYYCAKGRAAATFDSWGQGTLVTVSS | n.d. / n.d. / n.d. | 0/9 |
| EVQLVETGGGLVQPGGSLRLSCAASEFTLNSYGISWVRQAPGKGPEWVSVIYSDGRRTFYGDSVKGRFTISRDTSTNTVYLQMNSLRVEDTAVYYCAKGRAAGTPDYWGQGTLVTVSS | n.d. / n.d. / n.d. | 0/9 |
| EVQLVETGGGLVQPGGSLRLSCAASGFTLNSYGISWVRQAPGKGPEWVSVIYSDGRRTFEGDCVKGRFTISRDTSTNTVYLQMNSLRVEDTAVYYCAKGRAAGTFNSWGQGTLVTVSS | n.d. / n.d. / n.d. | 1/9 (3.59) |
| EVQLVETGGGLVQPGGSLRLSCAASGFTLASAGISWVRQAPGKGPEWVSVIYSDGRRTFYGDFVKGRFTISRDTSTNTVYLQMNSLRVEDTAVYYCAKGRAAGTFDSWGQGTLVTVSS | n.d. / n.d. / n.d. | 0/9 |
| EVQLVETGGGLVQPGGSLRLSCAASGFTLNSYGISWVRQAPGKGPEWVSVIYSDGRRTFYGDGVKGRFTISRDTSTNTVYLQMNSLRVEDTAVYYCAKGRATGTFDMWGQGTLVTVSS | 2.99 / 2.38 / n.d. | 0/9 |
| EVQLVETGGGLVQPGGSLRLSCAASGFTLNSYGASWVRQAPGKGPEWVSVIYSDGRRTFKGDSVKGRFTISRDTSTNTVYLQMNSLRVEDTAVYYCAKGEAAGTFDSWGQGTLVTVSS | 3.66 / n.d. / n.d. | 1/9 (3.45) |
| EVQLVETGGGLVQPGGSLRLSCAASGFTLGSYGISWVRQAPGKGPEWVSVIRSDGRRTFYGDSVKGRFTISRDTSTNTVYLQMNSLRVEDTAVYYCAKGRAAGTFLSWGQGTLVTVSS | n.d. / n.d. / n.d. | 0/9 |
| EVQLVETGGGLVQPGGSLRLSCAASGFTLNSYGISWVRQAPGKGPEWVSDIYSDGFRTFYGLSVKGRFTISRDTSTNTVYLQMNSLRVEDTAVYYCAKGRAAGTFDSWGQGTLVTVSS | n.d. / n.d. / n.d. | 0/9 |
| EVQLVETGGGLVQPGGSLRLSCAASGFRLNSYGISWVRQAPGKGPEWVSVCYFDGRRTFYGDSVKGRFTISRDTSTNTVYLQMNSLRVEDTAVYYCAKGRAAGTFDSWGQGTLVTVSS | n.d. / n.d. / n.d. | 1/9 (2.49) |
| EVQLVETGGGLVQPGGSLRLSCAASGFTLNSYQISWVRQAPGKGPEWVSVIDSDGRRTFYGDSVKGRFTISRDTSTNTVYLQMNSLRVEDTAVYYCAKGRAAGTMDSWGQGTLVTVSS | n.d. / n.d. / n.d. | 1/9 (4.41) |
| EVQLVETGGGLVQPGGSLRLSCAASGFTLNSYGISWVRQAPGKGPEWVSVIYSDGRRTFYGDSVIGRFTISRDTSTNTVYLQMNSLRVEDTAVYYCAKGRAAGTFDSWGQGTLVTVSS | 1.13 / 1.29 / 1.30 | 0/9 |
| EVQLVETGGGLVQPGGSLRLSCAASGFTLNSYGISWVRQAPGKGPEWVSVIYSDGCRTFYGDSVKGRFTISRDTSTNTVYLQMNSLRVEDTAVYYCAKGRTAGTNDSWGQGTLVTVSS | n.d. / n.d. / n.d. | 0/9 |
| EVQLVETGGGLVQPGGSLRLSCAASCFTLNSYGISWVRQAPGKGPEWVSVIYSDGRRTFYGDSVKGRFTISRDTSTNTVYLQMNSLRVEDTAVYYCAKGKAAPTFDSWGQGTLVTVSS | n.d. / n.d. / n.d. | 0/9 |
| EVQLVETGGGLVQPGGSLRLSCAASGFTLNSYGITWVRQAPGKGPEWVSVIYSDGRRTFYGDSVKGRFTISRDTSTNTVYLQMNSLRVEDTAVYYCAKGRAAGTSDPWGQGTLVTVSS | n.d. / 3.85 / n.d. | 0/9 |

2 of these entries, quoted again:

{"VH": "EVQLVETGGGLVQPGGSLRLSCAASGFTLNSYGISWVRQAPGKGPEWVSVIYSMGQRTFYGDSVKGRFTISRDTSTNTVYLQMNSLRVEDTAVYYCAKGRAIGTFDSWGQGTLVTVSS", "log10 Kd (nM) by replicate": "5.96 / 3.18 / 4.54", "signal with controls": "1/9 (3.98)"}
{"VH": "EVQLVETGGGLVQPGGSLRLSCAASGFTLNSYGISWVRQAPGKGPEWVSVIYSDGCRTFYGDSVKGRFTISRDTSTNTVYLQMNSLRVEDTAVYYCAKGRTAGTNDSWGQGTLVTVSS", "log10 Kd (nM) by replicate": "n.d. / n.d. / n.d.", "signal with controls": "0/9"}

In this assay the parent's reference entry averaged 0.65; its copy inside this library read 4.11 (one replicate of three).